## Yeast mating assay B: variants of the scFv Ab-14

The measurements come from Li et al. 2023 (doi:10.1038/s41467-023-39022-2) through the FLAb antibody collection.

All variants were tested on one target, the spike HR2 peptide PDVDLGDISGINAS (SARS-CoV-2).

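The starting antibody came from a phage panning campaign against this peptide. Designed CDR sequences, proposed from the first random library and measured here. Group labels follow the data file (Ctrl: baseline library sampled from a position-specific scoring matrix, with some repeated check sequences; GP: Gaussian process model; HC: hill climbing; Gen: genetic algorithm; Gibbs: Gibbs sampling; a sequence that several methods proposed may carry one label only). The assay is AlphaSeq: two haploid yeast populations carry antibody and antigen on their surface. After mating in shaken culture at 30 °C for 16 h, diploids were selected and their barcode pairs sequenced. A regression on co-assayed BCL2-family reference pairs converts the normalised counts of each replicate to an apparent Kd. The assay was run in six technical replicates.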

Ab-14 is the parent antibody, in scFv form: VH, then the linker GGGGSGGGGSGGGGS, then VL. The heavy chain is unchanged in all variants.
VH: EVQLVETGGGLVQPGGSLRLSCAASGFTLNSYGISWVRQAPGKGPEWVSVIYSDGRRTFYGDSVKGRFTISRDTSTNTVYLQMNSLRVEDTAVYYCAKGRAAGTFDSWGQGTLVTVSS
VL: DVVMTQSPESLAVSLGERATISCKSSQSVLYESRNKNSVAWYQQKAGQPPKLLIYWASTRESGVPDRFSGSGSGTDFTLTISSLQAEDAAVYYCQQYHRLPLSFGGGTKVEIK

Each variant is given by its three light chain CDRs, as the data file delimits them; those of the parent are KSSQSVLYESRNKNSVA, WASTRES, QQYHRLPLS.
Variants here have at most six changes.
Affinities are written as log10 Kd with Kd in nM; a lower number is a better binder.
Averages over replicates are reported, and they cover detected replicates only.
"n.d." marks a missing value. The strain was present, yet no cells mated with the target were sequenced in that replicate, which points to weak or no binding.
Values of this round are not directly comparable with the first-round values of the same sequences.

CDR-L1	CDR-L2	CDR-L3	group	log10 Kd, replicates	log10 Kd (nM), mean	empty controls
KLMQSTLYESRNKNSVA	NASQRES	QQYHRLPLS	GP_Gen	0.93 / 0.54 / 0.86 / 0.50 / 0.42 / 1.00	0.71	0 of 18
KSSQSVLYESRNKNSVA	NASTRED	QQYHRLPLS	Ctrl	0.86 / 0.81 / 0.54 / 0.58 / 0.72 / 0.63	0.69	2 of 18 (3.72)
KSSQSVLYESRNKNSVA	WASMRES	QQYHRLPES	Ctrl	2.59 / 2.96 / n.d. / 1.97 / 2.15 / 3.40	2.61	2 of 18 (1.85)
KSSQSVLYESRNSNSVA	EASVRES	QQYHGLPLM	Ctrl	1.31 / 0.89 / 1.48 / 0.93 / 1.31 / 1.32	1.21	0 of 18
KSSQSTLENSRNKNSVA	AASTRES	YQYHRLPLS	Ctrl	n.d. / n.d. / n.d. / n.d. / n.d. / n.d.	n.d.	1 of 18 (1.81)
KLSQSVLYESRNKASVA	DASTRES	QQYHRLPLS	GP_Gen	0.16 / 0.04 / 0.00 / -0.12 / -0.06 / 0.05	0.01	0 of 18
KVSPSELYESRNKNSVA	QASTRES	QQYHRLPLS	GP_HC	-0.36 / -0.13 / -0.36 / -0.66 / -0.29 / -0.37	-0.36	0 of 18
KSSQSVLYESRNKNSVA	WASTRMS	QQYHRLPLS	Ctrl	1.05 / 0.70 / 1.15 / 0.61 / 1.17 / 0.93	0.94	0 of 18
KSSQSVLLESRNKNSVA	WASRRES	QQYHRLPLS	Ctrl	n.d. / n.d. / n.d. / n.d. / n.d. / 2.84	2.84	1 of 18 (1.82)
KSEQGVLYESRNKNHVA	GASTRES	QQYHRLPLS	GP_HC	0.83 / 0.80 / 0.66 / 0.40 / 0.50 / 0.71	0.65	0 of 18
KSSTSVLYESRNKNSVA	WASTRES	QQYHRLPLS	Ctrl	2.32 / 1.84 / 1.46 / 1.68 / 1.66 / 1.84	1.80	1 of 18 (2.87)
KSSQSVLYESRNKNSVA	WASQRES	QQYARLPLS	Ctrl	1.37 / 1.83 / 1.33 / 0.85 / 1.11 / 1.24	1.29	1 of 18 (1.64)
KSMDSLLMESRNKNSVA	WASTRES	QQYHRLPLS	Ctrl	n.d. / n.d. / n.d. / n.d. / n.d. / n.d.	n.d.	0 of 18
KLPQSWLYESRNKNAVA	NASTRES	QQYHRLPLS	GP_Gen	-0.30 / -0.41 / -0.45 / -0.43 / -0.30 / -0.24	-0.36	0 of 18
KGSVSVLYESTNKNSVA	HASTRED	QSYHRLPLS	Ctrl	0.35 / n.d. / -0.40 / 0.59 / -0.32 / 0.53	0.15	0 of 18
KYAQSMLYESRNFNNVA	EASTRES	QQYHRLPLS	GP_Gibbs	2.49 / 1.12 / n.d. / 0.84 / 1.39 / 1.55	1.48	0 of 18
KFSQSDLYESRNKNSVA	DASQRES	QQYHRLPLS	GP_Gen	-0.37 / -0.45 / -0.64 / -0.54 / -0.55 / -0.37	-0.49	0 of 18
KLSQSVPYESRNKWSVA	NASTRES	QQYHRLPLS	GP_Gen	-0.18 / -0.25 / -0.35 / -0.48 / -0.35 / -0.17	-0.30	1 of 18 (2.83)
KSSQSVLYESRNKNGVA	WASTRES	AQYHRLPLS	Ctrl	1.33 / 0.65 / 1.00 / 0.54 / 0.82 / 0.69	0.84	2 of 18 (2.78)
KKSQSVLYESRNKNSVA	WASTRES	QKYHRLPLS	Ctrl	n.d. / n.d. / n.d. / n.d. / n.d. / n.d.	n.d.	0 of 18
KSGQGWLYESRNKNSVA	GASQRWS	QQYHRLPLS	GP_HC	-0.03 / -0.13 / -0.19 / 0.02 / -0.05 / 0.04	-0.06	0 of 18
KYSTSELEESRNKNSVA	WASTREE	QQYHRLPLS	GP_Gibbs	2.22 / n.d. / 1.62 / 2.98 / 1.88 / 2.08	2.16	1 of 18 (2.04)
KLPQSVLYESRNKNSVA	EASQRES	QQYHRLPLS	GP_Gen	0.07 / -0.34 / -0.10 / -0.36 / -0.28 / 0.06	-0.16	0 of 18
KSQQSQLYESRNFNSVA	NASTRES	QQYHRLPLS	GP_HC	1.21 / 1.48 / 0.89 / 1.41 / 1.44 / 1.79	1.37	0 of 18
KFSQSVLTESRNKNSVA	WASTRES	QEYHRLPLS	Ctrl	n.d. / 0.86 / 2.42 / n.d. / 2.09 / 1.19	1.64	0 of 18
KSSQSHLQNSRNKNSVA	WASTRES	QQYHRLPLS	Ctrl	n.d. / n.d. / 1.78 / 2.96 / 1.06 / 1.57	1.84	0 of 18
KLSQSWLYESRMKNSVA	NASQRMS	QQYHRLPLS	GP_Gen	n.d. / -0.43 / -0.43 / 0.13 / -0.59 / -0.48	-0.36	0 of 18
KLSCSVDYWSRNTNSVA	GASTRES	QQYHRLPLS	GP_Gibbs	0.57 / 0.59 / 0.56 / 0.63 / 0.62 / 0.81	0.63	0 of 18
KLSQSELYESRNKNSVA	NASYRLS	QQYHRLPLS	GP_Gen	0.76 / 0.47 / 0.40 / 0.46 / 0.44 / 0.53	0.51	2 of 18 (2.55)
KLPQSTLYESRNPNSVA	WASTRES	QQYHRLPLS	GP_HC	0.32 / 0.25 / 0.11 / 0.21 / 0.08 / 0.29	0.21	1 of 18 (3.69)
KSSQTVLNESRNKNSVA	WASTRES	QQYHRLPLS	Ctrl	0.30 / 0.28 / 0.24 / -0.01 / 0.17 / -0.01	0.16	0 of 18
KLSQSWDYESRNKNNVA	NASTRES	QQYHRLPLS	GP_Gen	-0.16 / -0.24 / -0.15 / -0.37 / -0.26 / 0.00	-0.20	0 of 18
KSSQSDGAESRNKNSVA	WASTRES	QQYHRLPLA	Ctrl	1.34 / 1.04 / 0.80 / 1.54 / 1.30 / 0.89	1.15	0 of 18
KSSQSVLYESRNKNSVA	WASTHES	QSYHRLPLS	Ctrl	n.d. / n.d. / n.d. / n.d. / n.d. / n.d.	n.d.	0 of 18
KSSQSVLYESRNKNSVA	HASTRES	QQYHRTPLS	Ctrl	n.d. / n.d. / n.d. / n.d. / 4.06 / n.d.	4.06	0 of 18
KVSQSVLYESRNKNSVA	AAMTRES	QQYHRLPLS	Ctrl	-0.13 / -0.07 / -0.04 / -0.24 / -0.33 / -0.18	-0.16	0 of 18
KSSWSGLYESRNKNSVA	EASTRES	QQYHRLPLS	GP_HC	0.09 / -0.24 / -0.16 / -0.32 / -0.26 / -0.16	-0.17	1 of 18 (3.20)
KLDQGDLYESRNKNSVA	GASTRES	QQYHRLPLS	GP_HC	0.20 / 0.28 / 0.10 / 0.13 / 0.23 / 0.36	0.22	0 of 18
KVLQSVLYESRNKNSVA	EASTRED	QQYHRLPLS	GP_HC	0.29 / 0.08 / 0.07 / 0.08 / -0.02 / 0.39	0.15	1 of 18 (1.91)
KLQQSVDYESRNKNSVA	NASTRED	QQYHQLPLS	GP_Gibbs	0.07 / 0.13 / -0.10 / -0.10 / 0.04 / 0.16	0.04	2 of 18 (3.30)
KSQQSVLYESRNSNSVA	NGSTREL	QDYHRLPLS	GP_Gibbs	0.14 / 0.18 / -0.07 / -0.02 / -0.07 / 0.36	0.09	1 of 18 (3.54)
KLRQSTLYESRNKNSVA	EASTRLS	QQYHRLPLS	GP_HC	0.38 / 0.09 / 0.26 / 0.41 / 0.26 / 0.34	0.29	0 of 18
KSSISYLYESENKNSVA	AASYRES	QQYHRLPLS	GP_HC	0.94 / 0.87 / 1.27 / 0.86 / 1.03 / 0.85	0.97	0 of 18
KSSQSVLGQSRNKNSVA	WASTRES	QQYHRLPLS	Ctrl	n.d. / 1.15 / n.d. / n.d. / 1.97 / 1.24	1.45	0 of 18
KSGQGGLYESRNKNSVA	GASQRWS	QQYHRLPLS	GP_HC	0.23 / 0.22 / 0.07 / -0.01 / 0.18 / 0.26	0.16	1 of 18 (2.33)
KSSQSVLYESSNKNSVA	WASTRES	QQYHRLPLS	Ctrl	0.99 / 0.98 / 1.06 / 1.29 / 1.32 / 1.31	1.16	1 of 18 (3.95)
KSSWSVLYESNNKNSVA	EASTRED	QQYHRLPLS	GP_HC	0.89 / 0.14 / 0.49 / 0.49 / 1.19 / 1.14	0.72	0 of 18
KVEQSELYESRNKNSVA	NASTRES	QQYHRLPLS	GP_Gen	0.38 / -0.41 / -0.13 / -0.92 / -0.83 / -0.42	-0.39	0 of 18
KSSQSVVYESRNYNSVA	PASTRES	QQYHRLSLS	Ctrl	n.d. / n.d. / n.d. / n.d. / n.d. / n.d.	n.d.	0 of 18
KLQQSVGYESRNKNSVA	NASTRES	QQYHRLPLS	GP_Gen	-0.23 / -0.23 / -0.39 / -0.37 / -0.31 / -0.12	-0.28	0 of 18

Picked from the list: the 4 lowest averages where every replicate gave a value.

CDR-L1	CDR-L2	CDR-L3	group	log10 Kd, replicates	log10 Kd (nM), mean	empty controls
KFSQSDLYESRNKNSVA	DASQRES	QQYHRLPLS	GP_Gen	-0.37 / -0.45 / -0.64 / -0.54 / -0.55 / -0.37	-0.49	0 of 18
KVEQSELYESRNKNSVA	NASTRES	QQYHRLPLS	GP_Gen	0.38 / -0.41 / -0.13 / -0.92 / -0.83 / -0.42	-0.39	0 of 18
KVSPSELYESRNKNSVA	QASTRES	QQYHRLPLS	GP_HC	-0.36 / -0.13 / -0.36 / -0.66 / -0.29 / -0.37	-0.36	0 of 18
KLPQSWLYESRNKNAVA	NASTRES	QQYHRLPLS	GP_Gen	-0.30 / -0.41 / -0.45 / -0.43 / -0.30 / -0.24	-0.36	0 of 18

Background: pairings of all light chain designs with three empty control strains gave a value in 4% of cases (median 2.64, 5th percentile 1.59). Values in that range, when seen in few replicates, are hard to tell from nonspecific mating. The control count says in how many pairings with the empty strains this scFv gave a signal, with their mean in brackets.
The parent sequence was in this pool as ten entries: three were never detected, three once, and four in most replicates, with averages from 0.34 to 2.37.
In the paper, a design with two or fewer of six values counts as a poor binder.